# System: primary polyclonal rabbit anti-OXT IgG (Cayman Chemical Company OXT EIA, secondary monoclonal mouse anti-rabbit IgG)
# Assay: OXT EIA cross-reactivity, Cayman Chemical Company kit
# Type: binding
substance,measurement,value
Albumin,cross-reactivity (IC50(OXT)/IC50(interfering protein)),< 0.01%

# — paper PMC10285453 (Comprehensive Psychoneuroendocrinology, 2023)
